Laboratory results published in PMC5343495 (Scientific Reports, 2017).

Columns and labels:
[1] = target: T1, thrombin (Homo sapiens, UniProt P00734); test: Thrombin inhibition assay (SensoLyte 520 FRET substrate kit); format: biochemical; conditions: 0.13 μg/ml thrombin, 1 hour at 37 °C
T1 construct: Thrombin, a multifunctional serine protease generated by prothrombin cleavage; purchased AnaSpec, Inc., San Jose, CA

[2] = target: T2, Thrombin from human plasma (Homo sapiens, UniProt P00734); test: SPR binding affinity measurement (Biacore T200, thrombin-immobilized CM5 chip); conditions: Table 2
T2 construct: Thrombin, a multifunctional serine protease generated by prothrombin cleavage; purchased Sigma-Aldrich Chemical Co. (St. Louis, MO, USA) T6884; host or cells: human plasma

Question: Which results are given for `CC1CNc2c(cccc2S(=O)(=O)N[C@@H](CCCNC(=N)N)C(=O)N2CC[C@@H](C)C[C@@H]2C(=O)O)C1` (some centres unmarked) [Argatroban, reference compound]?
Answer: IC50 [1]: 0.0157 µM; Kd [2]: 53.8 µM
